For one compound, cell death induced results are on record in patent publication US9132198B2, “Mitochondrial penetrating peptides as carriers for anticancer compounds” (priority 2011, dated 2015).

In this experiment the test system is leukemia cell lines (K562, M2, HL60, U937). Particulars: 3 μM staurosporine, overnight.

`CN[C@@H]1C[C@H]2O[C@@](C)([C@@H]1OC)n1c3ccccc3c3c4c(c5c6ccccc6n2c5c31)C(=O)NC4` [Staurosporine, staurosporine]: the cell death induced entry is “less cell death in the K562 and M2 cell lines compared to HL60 and U937”.
